The target in this experiment is 5-HT2A receptor (Homo sapiens, UniProt P28223). The experiment in a line: R-SAT functional assay, constitutively active wild type 5-HT2A receptor in NIH 3T3 cells. Particulars: 5-HT2A Receptor Negative Log EC50 (inverse agonism), Table 3; 50 ng/well receptor DNA.

The chains behind the UniProt entries cited, without tags or fusion partners.
UniProt P28223, whole entry: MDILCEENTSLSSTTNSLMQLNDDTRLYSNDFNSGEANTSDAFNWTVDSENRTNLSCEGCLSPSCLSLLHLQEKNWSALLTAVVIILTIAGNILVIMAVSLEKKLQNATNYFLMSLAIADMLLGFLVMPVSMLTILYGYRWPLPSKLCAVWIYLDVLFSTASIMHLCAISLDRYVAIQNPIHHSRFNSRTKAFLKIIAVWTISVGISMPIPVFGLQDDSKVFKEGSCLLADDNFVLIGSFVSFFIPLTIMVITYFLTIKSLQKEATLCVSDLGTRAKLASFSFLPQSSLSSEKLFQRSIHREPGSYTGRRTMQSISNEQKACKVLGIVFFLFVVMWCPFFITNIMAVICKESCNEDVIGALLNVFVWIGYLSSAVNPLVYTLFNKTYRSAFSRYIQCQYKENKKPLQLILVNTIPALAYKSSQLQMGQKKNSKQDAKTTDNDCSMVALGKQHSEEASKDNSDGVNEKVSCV

What is called EC50 is the midpoint of the concentration-response curve. High values mean a need for much substance, low ones an effect from little substance. The compound `CC1CCN(CCCC(=O)c2ccc(F)cc2)CC1` [Melperone] showed a concentration giving a half-maximal response (EC50) of 110 nM.

For the origin of these results see patent US6358698B1 (Acadia Pharmacueticals Inc., priority 1998, dated 2002).
